Laboratory results reported in US20230233538A1, “COMPOSITION FOR TREATING CORONAVIRUS DISEASE-19, COMPRISING PHENANTHROINDOLIZIDINE AND PHENANTHROQUI[…] DERIVATIVES, OPTICAL ISOMER THEREOF, OR PHARMACEUTICALLY ACCEPTABLE SALTS THEREOF AS ACTIVE INGREDIENT” (priority 2020, published 2023).

Tested on: Vero CCL-81 cells

COc1ccc2c3c(c4cc(OC)c(OC)cc4c2c1)C[C@H]1CCCCN1C3 [cryptopleurin]
Selectivity Index (SI): 6
